Paper PMC5719408, “Multivalent cross-linking of actin filaments and microtubules through the microtubule-associated protein Tau” (Nature Communications, 2017)

Target: Filamentous actin (F-actin) polymerised from non-muscle human actin (human) (UniProt P60709)
Assay: co-sedimentation; F-actin with Tau 1:1, 30 min at room temperature; 5000 x g 15 min for bundles (PB), then 100,000 x g 1 h for single filaments (PF); supernatant, PF and PB on 4-20% gradient gel, bands quantified

percent of Tau bound to single filaments: 8%
percent of Tau found with actin bundles: 29%
Substance: Human Tau (2N4R), 441-residue full-length Tau (from UniProt P10636-8 1-441) (natural protein)
